From PubChem BioAssay AID463193 (University of Pittsburgh Molecular Library Screening Center, 2010)
This is a selection; strong and weak results do not stand in their true shares. The source made the active and inactive calls.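 How the source made its calls: active means percentage of spot-positive cells more than 3 SD above its plate mean, without a fluorescence outlier flag or 80% toxicity; inconclusive means no clear call, values can overlap the other calls; inactive means the rest.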

Assay: autophagy modulators in MEF cells, primary screen, imaging, high-content, MEF GFP-LC3 (AID 463193);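 further: spot-positive cell cutoff set from DMSO-treated cells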
Details: MEF GFP-LC3 puncta imaging, at 10 µM, active compounds read high

Row | Compound | % cells with GFP-LC3 spots
1 | O=c1c2cc([N+](=O)[O-])ccc2[nH]c2c([N+](=O)[O-])cc([N+](=O)[O-])cc12 | active: 11.4%
